Experimental data: patent publication US20030139368A1, “Antithrombotic and/or anti-inflammatory composition combining purine activity and NSAID activity” (priority 2000, published 2003)

Tested on: human platelets
Assay: Response of human platelets stimulated by collagen
Assay type: cell-based
Conditions: collagen 0.19 mg/ml; substance 2 mM
Description: Platelet rich plasma was prepared by centrifugation using known methods.
Measurements were performed using an aggregometer marketed under the name “Chrono-log”. The measurements were processed and digitized using an “MP30 Biopac” data acquisition system.
We studied the response of human platelets stimulated by collagen (0.19 mg/ml, Biodata). Two parameters were measured: the latency time (elapsed time between bringing the platelets into contact with collagen and the beginning of aggregation) and the maximum amplitude of aggregation.

## O=C([O-])c1ccccc1O.[Na+] [sodium salicylate]
  latency time (contact with collagen to beginning of aggregation): no effect
  maximum response (maximum amplitude of aggregation) to collagen: not modified
